Data on 1 compound can be found in ChEMBL document CHEMBL1240533, “Selectivity and potency of cyclin-dependent kinase inhibitors” (AAPS J, 2006).

Amino acid sequences for entries named in this document (tags omitted).
UniProt P20248, whole entry: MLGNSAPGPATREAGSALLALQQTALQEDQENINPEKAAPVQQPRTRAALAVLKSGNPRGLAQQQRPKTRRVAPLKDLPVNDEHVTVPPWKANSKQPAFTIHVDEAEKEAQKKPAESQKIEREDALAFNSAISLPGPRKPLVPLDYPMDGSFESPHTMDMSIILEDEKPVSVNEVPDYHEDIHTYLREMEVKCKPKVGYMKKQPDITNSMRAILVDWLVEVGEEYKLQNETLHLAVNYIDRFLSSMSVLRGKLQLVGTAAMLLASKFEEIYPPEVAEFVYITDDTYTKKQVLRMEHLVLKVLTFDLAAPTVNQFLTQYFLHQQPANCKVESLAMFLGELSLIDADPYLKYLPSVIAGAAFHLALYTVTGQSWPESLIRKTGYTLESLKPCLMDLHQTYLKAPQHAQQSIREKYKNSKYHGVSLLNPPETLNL

Experiment [1] has as its target Cyclin-dependent kinase 2/cyclin A (Homo sapiens, UniProt P24941). In kind it is protein-complex assay.
The next experiment addresses Cyclin-A2 (Homo sapiens, UniProt P20248).

Structures are written as SMILES. pIC50: −log10 of the molar value.

As usually defined, the pIC50 is the IC50 on a negative log10 scale, so that one unit is a factor of ten. Read a high pIC50 as a small IC50. Turning to `CC(C)C[C@H](NC(=O)[C@H](CCCNC(N)=O)NC(=O)[C@@H](N)CCCNC(N)=O)C(=O)N[C@@H](C)C(=O)N[C@@H](Cc1ccc(F)cc1)C(N)=O`, the pIC50 was 4.92 in experiment [1] and 4.68 against Cyclin-A2.
